From patent publication US20250283871A1, “COMPOSITIONS AND METHODS FOR MODULATING THE INTERACTION BETWEEN SS18-SSX FUSION ONCOPROTEIN AND NUCLEOSOMES” (Dana-Farber Cancer Institute, Inc., priority 2020, published 2025) come the findings set out here.

Holding throughout (assay): MBP-SSX1 78aa pull-down of HEK293T mononucleosomes, targeted histone MS, sample MM05_E01
For experiment [1], the target named is H2A(12to17)K15ac1 histone form in mammalian mononucleosomes from HEK-293T cells (mammalian (HEK-293T cells)) (UniProt P0C0S8).
Experiment [2] concerns the target H2A(12to17)ac0 histone form in mammalian mononucleosomes from HEK-293T cells (mammalian (HEK-293T cells)) (UniProt P0C0S8).
The target in experiment [3] is H2A(4to11)K5ac1 histone form in mammalian mononucleosomes from HEK-293T cells (mammalian (HEK-293T cells)) (UniProt P0C0S8).
Experiment [4] concerns the target H2A(4to11)K5ac1K9ac1 histone form in mammalian mononucleosomes from HEK-293T cells (mammalian (HEK-293T cells)) (UniProt P0C0S8).
For experiment [5], the target named is H2A(4to11)K9ac1 histone form in mammalian mononucleosomes from HEK-293T cells (mammalian (HEK-293T cells)) (UniProt P0C0S8).
Experiment [6] has as its target H2A(4to11)ac0 histone form in mammalian mononucleosomes from HEK-293T cells (mammalian (HEK-293T cells)) (UniProt P0C0S8).
The target in experiment [7] is H2B(1to29)K5ac1 histone form in mammalian mononucleosomes from HEK-293T cells (mammalian (HEK-293T cells)) (UniProt P62807).
In experiment [8] the target is H3K4me1 histone form in mammalian mononucleosomes from HEK-293T cells (mammalian (HEK-293T cells)) (UniProt P68431).
The target in experiment [9] is H3K9me2S10ph1K14ac0 histone form in mammalian mononucleosomes from HEK-293T cells (mammalian (HEK-293T cells)) (UniProt P68431).
Experiment [10] addresses H3K9me3S10ph1K14ac0 histone form in mammalian mononucleosomes from HEK-293T cells (mammalian (HEK-293T cells)) (UniProt P68431).
Experiment [11] concerns the target H4(20to23)K20me3 histone form in mammalian mononucleosomes from HEK-293T cells (mammalian (HEK-293T cells)) (UniProt P62805).
Experiment [12] concerns the target H4(4to17)K12ac1K16ac1me0 histone form in mammalian mononucleosomes from HEK-293T cells (mammalian (HEK-293T cells)) (UniProt P62805).
Experiment [13] has as its target H4(4to17)K12ac1me0 histone form in mammalian mononucleosomes from HEK-293T cells (mammalian (HEK-293T cells)) (UniProt P62805).
The target of experiment [14] is H4(4to17)K16ac1me0 histone form in mammalian mononucleosomes from HEK-293T cells (mammalian (HEK-293T cells)) (UniProt P62805).
Experiment [15] concerns the target H4(4to17)K5ac1K16ac1me0 histone form in mammalian mononucleosomes from HEK-293T cells (mammalian (HEK-293T cells)) (UniProt P62805).
Experiment [16] deals with H4(4to17)K5ac1K8ac1K12ac1me0 histone form in mammalian mononucleosomes from HEK-293T cells (mammalian (HEK-293T cells)) (UniProt P62805).
Experiment [17] concerns the target H4(4to17)K5ac1K8ac1K16ac1me0 histone form in mammalian mononucleosomes from HEK-293T cells (mammalian (HEK-293T cells)) (UniProt P62805).
Experiment [18] deals with H4(4to17)K5ac1K8ac1me0 histone form in mammalian mononucleosomes from HEK-293T cells (mammalian (HEK-293T cells)) (UniProt P62805).
Experiment [19] has as its target H4(4to17)K5ac1me0 histone form in mammalian mononucleosomes from HEK-293T cells (mammalian (HEK-293T cells)) (UniProt P62805).
The target of experiment [20] is H4(4to17)K8ac1K12ac1K16ac1me0 histone form in mammalian mononucleosomes from HEK-293T cells (mammalian (HEK-293T cells)) (UniProt P62805).
In experiment [21] the target is H4(4to17)K8ac1K12ac1me0 histone form in mammalian mononucleosomes from HEK-293T cells (mammalian (HEK-293T cells)) (UniProt P62805).
In experiment [22] the target is H4(4to17)ac0me0 histone form in mammalian mononucleosomes from HEK-293T cells (mammalian (HEK-293T cells)) (UniProt P62805).

With “MBP-SSX1 (78aa) (from UniProt P0AEX9 27-392)”, the log2 normalized (Light/Heavy) intensity ratio was -0.086 log2 in experiment [1]; -0.12 log2 in experiment [2]; 0.624 log2 in experiment [3]; -0.049 log2 in [4]; -0.375 log2 in [5]; 0.061 log2 in experiment [6]. Besides, the log2 normalized (Light/Heavy) intensity ratio is 0.323 log2 in [7]; 0.353 log2 in [8]; -1.09 log2 in [9]; -1.03 log2 in experiment [10]; 0.055 log2 in experiment [11]; 0.304 log2 in [12]. The log2 normalized (Light/Heavy) intensity ratio in experiment [13] is -0.275 log2; in [14], -0.337 log2; in experiment [15], 0.367 log2; in experiment [16], -0.27 log2; in [17] it was 0.311 log2; in [18], 0.094 log2. The log2 normalized (Light/Heavy) intensity ratio in [19] is 0.075 log2; in experiment [20], 0.625 log2; in [21] it was -0.093 log2; in experiment [22] it was -0.573 log2.
